Laboratory results from paper PMC5626944, “TC299423, a Novel Agonist for Nicotinic Acetylcholine Receptors” (Frontiers in Pharmacology, 2017).

By UniProt entry, the sequences of proteins in these tests, tags left out. Residues count along the entry.
UniProt Q9ERK7, 26-501: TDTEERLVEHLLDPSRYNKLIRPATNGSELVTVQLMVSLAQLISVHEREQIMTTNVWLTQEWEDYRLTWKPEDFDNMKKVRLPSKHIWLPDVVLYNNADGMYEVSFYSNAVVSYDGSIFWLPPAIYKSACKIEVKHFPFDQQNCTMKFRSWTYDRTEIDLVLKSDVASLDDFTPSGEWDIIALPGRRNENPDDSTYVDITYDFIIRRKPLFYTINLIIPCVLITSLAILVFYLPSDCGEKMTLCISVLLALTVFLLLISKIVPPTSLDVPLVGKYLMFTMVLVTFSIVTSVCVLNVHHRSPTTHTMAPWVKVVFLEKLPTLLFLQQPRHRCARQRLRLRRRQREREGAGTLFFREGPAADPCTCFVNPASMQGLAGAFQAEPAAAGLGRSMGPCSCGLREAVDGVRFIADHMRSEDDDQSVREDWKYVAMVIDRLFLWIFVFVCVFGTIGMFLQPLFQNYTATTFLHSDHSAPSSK
UniProt Q9R0W9, 31-494: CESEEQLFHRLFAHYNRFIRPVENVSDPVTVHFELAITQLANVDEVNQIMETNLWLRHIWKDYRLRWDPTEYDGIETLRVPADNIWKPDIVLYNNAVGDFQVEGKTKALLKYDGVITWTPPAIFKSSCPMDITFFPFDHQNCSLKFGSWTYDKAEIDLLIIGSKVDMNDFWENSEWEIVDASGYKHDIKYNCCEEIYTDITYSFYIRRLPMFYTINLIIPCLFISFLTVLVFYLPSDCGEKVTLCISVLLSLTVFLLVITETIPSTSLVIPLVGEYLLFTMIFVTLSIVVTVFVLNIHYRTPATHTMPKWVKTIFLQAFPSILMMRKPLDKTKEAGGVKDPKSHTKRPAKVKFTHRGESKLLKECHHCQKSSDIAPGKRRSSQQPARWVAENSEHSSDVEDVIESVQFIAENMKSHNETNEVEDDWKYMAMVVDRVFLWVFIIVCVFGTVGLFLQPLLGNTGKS
UniProt O70174, 31-629: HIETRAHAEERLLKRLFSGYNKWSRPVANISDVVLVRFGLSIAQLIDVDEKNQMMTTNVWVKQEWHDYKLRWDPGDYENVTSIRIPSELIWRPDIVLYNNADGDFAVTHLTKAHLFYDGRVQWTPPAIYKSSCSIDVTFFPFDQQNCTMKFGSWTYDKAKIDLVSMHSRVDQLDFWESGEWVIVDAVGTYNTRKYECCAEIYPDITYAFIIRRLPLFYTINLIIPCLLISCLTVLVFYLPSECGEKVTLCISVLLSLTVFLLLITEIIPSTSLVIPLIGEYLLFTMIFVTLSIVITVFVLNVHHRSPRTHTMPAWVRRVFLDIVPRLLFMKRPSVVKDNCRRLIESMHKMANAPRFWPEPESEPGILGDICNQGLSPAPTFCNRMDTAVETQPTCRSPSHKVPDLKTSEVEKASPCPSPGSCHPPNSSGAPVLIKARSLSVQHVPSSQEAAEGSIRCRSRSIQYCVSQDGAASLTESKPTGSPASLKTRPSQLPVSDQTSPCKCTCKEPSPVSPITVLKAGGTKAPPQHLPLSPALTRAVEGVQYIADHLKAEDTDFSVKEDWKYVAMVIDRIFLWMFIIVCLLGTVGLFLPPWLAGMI

How the values were obtained:
α6β2* nAChRs = α6β2* nAChRs (Mus musculus, UniProt Q9ERK7+Q9R0W9); assay type: biochemical
Description: Regions of interest were dissected from fresh mouse brains and homogenized in ice-cold isotonic sucrose (0.32 M), buffered with HEPES (5 mM, pH 7.5). The suspension was centrifuged at 12,000 × g for 20 min. The pellet was re-suspended in the appropriate uptake buffer ([Grady et al., 2001]; [Salminen et al., 2004]; [Marks et al., 2006]) and used immediately.
Superfusion was carried out at 22°C using a buffer containing: NaCl, 128 mM; KCl, 2.4 mM; CaCl2, 3.2 mM; MgSO4, 1.2 mM; KH2PO4, 1.2 mM; HEPES, 25 mM; glucose, 10 mM; ascorbic acid, 1 mM; pargyline, 0.01 mM; 0.1% BSA; nomifensine, 1 μM (to prevent the re-uptake of dopamine); atropine, 1 μM (to prevent muscarinic receptor activation); pH 7.5. Superfusion proceeded at 0.7 mL/min for 10 min before stimulation with agonist for 20 s. Selected aliquots were perfused with α-CtxMII (50 nM) for 3 min immediately before stimulation. This concentration of α-CtxMII was sufficient to inhibit α6β2^∗-nAChRs in the mouse striatum ([Salminen et al., 2004], [2007]). Fractions (∼0.1 mL) were collected into 96-well plates at 10 s intervals for 4 min (starting ∼1 min before stimulation). After adding 0.15 mL of Optiphase SuperMix scintillation cocktail, radioactivity was measured using a 1450 MicroBeta TriLux counter (Perkin Elmer Life Sciences).

α4β2* nAChRs = α4β2* nAChRs (Mus musculus, UniProt O70174+Q9ERK7); assay type: biochemical; settings: calculated from Michaelis–Menten curve fit
Description: Regions of interest were dissected from fresh mouse brains and homogenized in ice-cold isotonic sucrose (0.32 M), buffered with HEPES (5 mM, pH 7.5). The suspension was centrifuged at 12,000 × g for 20 min.
Superfusion proceeded at 0.7 mL/min for 10 min before stimulation with agonist for 20 s. Selected aliquots were perfused with α-CtxMII (50 nM) for 3 min immediately before stimulation. […] Fractions (∼0.1 mL) were collected into 96-well plates at 10 s intervals for 4 min (starting ∼1 min before stimulation).

α6β2 nAChRs = test system: α6β2 nAChRs; set-up: method as in Post et al., 2015; settings: oocyte expression system; ref Post et al., 2015; cited from earlier work

SMILES: C1=C(/c2cncnc2)CCCNCC/1 [TC299423, (E)-5-(pyrimidin-5-yl)-1,2,3,4,7,8-hexahydroazocine]
- Maximal release relative to that of nicotine (α6β2* nAChRs; WT and α5KO): 50–54%
- Potency for α6β2* relative to α4β2* (α6β2* nAChRs; patch-clamp and [3H]dopamine release data sets): 2.5 fold and ~3 fold
- Maximal response, α-CtxMII-resistant [3H]-dopamine release (α4β2* nAChRs): 6.06 ± 0.37 units
- Efficacy relative to ACh (α6β2 nAChRs): 59%

“And” between values parts separate entries of the source, which are not always exact repeats. Equal entries are not always repeated.
